The results in this text go back to patent US4039736A, “Antibiotic compounds marcellomycin and musettamycin” (Bristol-Myers Company, priority 1976, dated 1977).

One series concerns P-388 leukemia. Kind of series: transplanted mouse leukemia P-388 (ascitic). To be noted: for Survivors Day 5: single i.p. injection Day 1.
Series [1] relates to L-1210 leukemia. Description: transplanted mouse leukemia L-1210 (ascitic). To be noted: for Survivors Day 5: single i.p. injection Day 1.
For series [2], the system named is L-1210 leukemia. Description: L-1210 mouse leukemia, purified compounds, BDF1 female mice.

Turning to `CC[C@@]1(O)C[C@H](O[C@H]2C[C@H](N(C)C)[C@H](O[C@H]3C[C@H](O)[C@H](O)[C@H](C)O3)[C@H](C)O2)c2c(cc3c(c2O)C(=O)c2c(O)ccc(O)c2C3=O)[C@H]1C(=O)OC` [musettamycin], the “Survivors Day 5” value with P-388 leukemia (6.4 mg/kg), with P-388 leukemia (.2 mg/kg), in the series with P-388 leukemia (.4 mg/kg), with P-388 leukemia (.8 mg/kg), in the series on L-1210 leukemia [1] (6.4 mg/kg) and in the series with L-1210 leukemia [1] (.8 mg/kg) was 6/6 each time. For the same compound, the “Survivors Day 5” value was 6/6 in the series on L-1210 leukemia [2] (6.4 mg/kg/day i.p., Day 1, 1 injection); 5/6 in the series with L-1210 leukemia [2] (6.4 mg/kg/day i.p., Day 1→5, 5 injections); 6/6 in the series on L-1210 leukemia [2] (12.8 mg/kg/day i.p., Day 1, 1 injection); 6/6 in the series on L-1210 leukemia [2] (.2 mg/kg/day i.p., Day 1→5, 5 injections); 6/6 with L-1210 leukemia [2] (.4 mg/kg/day i.p., Day 1, 1 injection); 6/6 with L-1210 leukemia [2] (.4 mg/kg/day i.p., Day 1→5, 5 injections). Moreover, the “Survivors Day 5” value in the series on L-1210 leukemia [2] (.8 mg/kg/day i.p., Day 1, 1 injection) is on record as 6/6; in the series with L-1210 leukemia [2] (.8 mg/kg/day i.p., Day 1→5, 5 injections) it was 6/6. Besides, the “activity on P-388 mouse leukemia” value with P-388 leukemia (Example 7 column fraction) is “highly active”. In addition, the “activity on L-1210 mouse leukemia” value with L-1210 leukemia [1] (Example 7 column fraction) was “highly active”.
